Test results as given in patent publication US5861426A, “Nitro compounds of the formula A-Xi -NO2 and their compositions having anti-inflammatory, analgesic and anti-thrombotic activities” (Nicox S.A., priority 1994, dated 1999).

Columns and labels:
[1] = test system: carrageenin-oedema; assay: Anti-inflammatory activity, carrageenin-oedema method; format: in vivo; settings: rats, oral 3 to 30 mg/Kg in carboxymethylcellulose; natural product = 1.0
[2] = test system: Swiss mice; assay: Analgesic activity (Hendershot et al.); format: in vivo; settings: oral 3 to 30 mg/Kg in carboxymethylcellulose, natural product = 1.0
[3] = test system: human platelets stimulated by thrombin; assay: Platelet anti-aggregating activity in vitro; format: cell-based; settings: 10^-5 to 10^-7 molar range, natural product = 1.0
[4] = test system: cyclo-oxygenase; assay: Anti-cyclooxygenase activity; format: cell-based; settings: in vitro, 10^-5 to 10^-7 molar range; natural product = 1.0
[5] = test system: gastropathy; assay: Gastric tolerance, severity of induced gastropathy; settings: rats, oral 3 to 30 mg/Kg in carboxymethylcellulose; natural product = 1.0

CC(=O)Oc1ccccc1C(=O)O [ASPIRIN, acetylsalicylic acid, reference compound]
1.0: anti-inflammatory properties (I), potency ratio versus natural reference product [1] | analgesic properties (II), potency ratio versus natural reference product [2] | platelet anti-aggregating (II), potency ratio versus natural product [3] | anti-cyclooxygenase (I), potency ratio versus natural product [4] | gastrointestinal tolerance (III) (toxicity), potency ratio versus natural reference product [5]
